{"sequences": {"note": "By UniProt entry, the sequences of proteins in these tests, tags left out. Residues count along the entry.", "UniProt P14780, 94-707": "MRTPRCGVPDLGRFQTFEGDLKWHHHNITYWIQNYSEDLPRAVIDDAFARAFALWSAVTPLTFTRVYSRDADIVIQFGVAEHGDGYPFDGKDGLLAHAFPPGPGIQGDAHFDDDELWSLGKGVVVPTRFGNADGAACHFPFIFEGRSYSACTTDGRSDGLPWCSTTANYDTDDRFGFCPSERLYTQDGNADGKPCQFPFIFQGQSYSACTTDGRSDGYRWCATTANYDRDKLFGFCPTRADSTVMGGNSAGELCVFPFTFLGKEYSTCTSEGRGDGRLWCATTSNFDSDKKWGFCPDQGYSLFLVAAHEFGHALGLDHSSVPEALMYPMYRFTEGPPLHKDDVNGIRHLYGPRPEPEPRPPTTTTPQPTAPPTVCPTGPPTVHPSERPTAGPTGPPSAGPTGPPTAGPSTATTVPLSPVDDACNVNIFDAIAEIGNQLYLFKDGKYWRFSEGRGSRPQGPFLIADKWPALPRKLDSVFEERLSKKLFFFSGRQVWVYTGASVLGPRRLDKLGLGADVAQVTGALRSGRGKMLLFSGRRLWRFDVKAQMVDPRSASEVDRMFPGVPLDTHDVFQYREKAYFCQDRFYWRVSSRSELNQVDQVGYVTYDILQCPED"}, "source": "patent US6767890B1", "about": "“Peptides having anti-cancer and anti-inflammatory activity” (priority 1998, dated 2004)", "key": {"Collagenase IV": {"biological_target": "T1, Collagenase IV (Homo sapiens, UniProt P14780)", "T1 construct": "human U937; endogenous in cells; host or cells: U937 cells", "assay": "Collagenase IV enzyme assay", "type": "biochemical", "conditions": "historical value; read-out: ^1IC, (IC50 of reference compound)", "protocol": "(§1) The peptide was further screened in vitro in a variety of enzyme and biochemical assays. Methods employed were adapted from the scientific literature to maximize reliability and reproducibility. The primary literature reference for each assay is listed in Table 11 opposite the results for each assay.\n(§2) Unless otherwise indicated, the peptide was tested in duplicate at the concentrations indicated for each assay. Results presented in Table 10, “Results,” are the average of duplicate determinations, unless otherwise noted.\n(§3) Reference compounds were tested concurrently at 5 concentrations as an integral part of each assay to ensure the validity of the results obtained.\n(§4) Enzyme assays were performed under conditions described in Table 8, “Experimental Conditions.”. The commercial suppliers and catalog numbers of substrates employed in this study are given in Table 7, “Material Sources.” The name, commercial source, and catalog numbers of concurrent reference compounds (controls) employed in this study are given in Table 9, “Reference Compound Data.” The reaction catalyzed by each enzyme is listed in Table 8, “Experimental Conditions.”\n(§5) Biochemical assay results are presented in Table 10, as the percent inhibition of specific binding or activity, and unless noted are the average of duplicate tubes tested at each concentration."}, "PLA2, Pancreatic": {"biological_target": "T2, PLA2, Pancreatic (Sus scrofa, UniProt P00592)", "T2 construct": "porcine; from tissue; host or cells: porcine pancreas", "T2 sequence (P00592 23-146)": "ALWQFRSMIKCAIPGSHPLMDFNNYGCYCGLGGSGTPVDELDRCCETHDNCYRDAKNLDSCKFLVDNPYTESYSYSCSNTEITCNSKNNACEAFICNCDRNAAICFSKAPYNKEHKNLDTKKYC", "assay": "PLA2, Pancreatic enzyme assay", "type": "biochemical, porcine", "conditions": "historical value; read-out: ^1IC, (IC50 of reference compound)", "protocol": "as §1, §2, §3, §4, §5"}, "Protease - Elastase": {"biological_target": "T3, Protease - Elastase (Homo sapiens, UniProt P08246)", "T3 construct": "neutrophils; endogenous in cells; host or cells: human neutrophils", "T3 sequence (P08246 30-267)": "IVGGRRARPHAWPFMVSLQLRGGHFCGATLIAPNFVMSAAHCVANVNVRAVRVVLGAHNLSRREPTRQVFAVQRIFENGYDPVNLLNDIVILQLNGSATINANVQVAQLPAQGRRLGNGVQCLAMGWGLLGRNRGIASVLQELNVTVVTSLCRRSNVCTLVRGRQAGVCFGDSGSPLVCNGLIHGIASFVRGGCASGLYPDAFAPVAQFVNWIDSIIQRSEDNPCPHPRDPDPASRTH", "assay": "Protease - Elastase enzyme assay", "type": "biochemical", "conditions": "historical value; read-out: ^1IC, (IC50 of reference compound)", "protocol": "as §1, §2, §3, §4, §5"}, "Sarcoma 180 tumor": {"tested_on": "Sarcoma 180 tumor", "assay": "Anti-Cancer Activity Against Mouse Tumor Sarcoma 180", "type": "in vivo", "conditions": "mouse body weight gain, 10 mg/kg, I.P. injections or gavage on days 1-5, 6 mice", "protocol": "The peptide was assayed in a mouse model of the tumor Sarcoma 180. This model has been used extensively as indicative of neovascularization in mammals inasmuch as the tumor so implanted is quickly vascularizing.\nExperimental Design: All mice were weighed at test initiation and test termination. The animals were divided into three groups. The Sarcoma 180 tumor was made up from a passage mouse to furnish […] per 0.1 mL inoculum. The cells were injected into the left leg hamstring muscle mass. The was delivered to the mice by I.P. injections, or gavage on days 1-5.\nAt the termination of the experiments, the mice were weighed and the left rear leg was amputated at the thigh. The skin was removed from the leg to expose the site at which the tumor was located. […]."}, "[1]": {"tested_on": "DNBS-induced distal colitis", "assay": "Inflammation, Inflammatory Bowel Disease (DNBS distal colitis)", "type": "in vivo", "conditions": "rat, 30 mg/kg × 6 PO, died on day 7", "protocol": "(§6) Peptide was prepared according to the methods set out in Example 1. The vehicle of distilled water was used for in vitro assays, working solution of peptide was added to the 10 ml tissue bath. For in vivo assay, distilled water and saline was used as vehicle in oral and intraperitoneal administration, respectively. Dosing volume was 20 ml/kg for mice or 10 ml/kg for rats. For topical route, peptide was dissolved in a vehicle of Acetone/Ethanol (1:1) and applied in a dosing volume 20 μl/ear.\nGroups of 3 Sprague-Dawley derived male rats weighing 150±20 gms and fasted for 24 hours were used. Distal colitis was induced by intra-colonic instillation of DNBS (2,4-dinitrobenzene sulfonic acid, 30 mg in 0.5 ml ethanol 30%) after which air (2 ml) was gently injected through the cannula to ensure that the solution remains in the colon. Test substance was administered PO (30 mg/kg) at 24 and 2 hours before DNBS instillation. Then, the animals received test compound every 24 hours for 5 consecutive days. The control group was given vehicle alone as compound dosing pattern. The animals were sacrificed 24 hours after the final dose of test compound administration and each colon was removed and weighed. Colon-to-body weight ratio was obtained from the percentage of the comparison between the animal colon weight and body weight on the 8th day. […]"}, "[2]": {"tested_on": "oxazolone-induced ear swelling", "assay": "Immune Suppression, Cellular (oxazolone ear thickness)", "type": "in vivo", "conditions": "mouse, 100 mg/kg × 5 IP; one animal out of 5 died on day 8 before oxazolone application", "protocol": "as §6\nGroups of 5 ICR derived male mice weighing 22±1 gms were used. The preshaved abdominal surface was sensitized by application of oxazolone 0.1 ml of 5% solution. Test substance of peptide at dose of 100 mg/kg and vehicle (saline) were administered into the mice intra peritoneally after one hour and daily for five consecutive doses. After additional four days, the animals were challenged by secondary application of oxazolone (0.025 ml of 5% solution) to the right ear. After a further 24 hours, each mouse was sacrificed and ear thickness measured with a Dyer Model micrometer gauge. A 30 percent or more (≧30%) decrease relative to the vehicle control group was considered significant and indicated possible immunosuppressant activity."}}, "data": [{"substance": "HS—CH—R—CH(CH—CH(CH3)2—CO—Nal-Ala-NH [reference compound]", "values": [{"measurement": "IC50", "setting": "Collagenase IV", "result": 31, "unit": "nM"}]}, {"substance": "Quinacrine [reference compound]", "values": [{"measurement": "IC50", "setting": "PLA2, Pancreatic", "result": 120000, "unit": "nM"}]}, {"substance": "N-Me—OSuc-AAPV [reference compound]", "values": [{"measurement": "IC50", "setting": "Protease - Elastase", "result": 180, "unit": "nM"}]}, {"substance": "LEU-PRO-PRO-SER-ARG [synthetic peptide (crude 60%)]", "values": [{"measurement": "Wt. gain, gm", "setting": "Sarcoma 180 tumor", "result": 5.9, "unit": "gm"}]}, {"substance": "LEU-PRO-PRO-SER-ARG [Peptide]", "values": [{"measurement": "Wt. gain, gm", "setting": "Sarcoma 180 tumor; listed as natural peptide", "result": 5.8, "unit": "gm"}, {"measurement": "Died (mortality)", "setting": "[1]", "result": "Died"}, {"measurement": "Died (mortality)", "setting": "[2]", "result": "Died"}]}]}
